# Reference: PubChem BioAssay AID924 (National Center for Advancing Translational Sciences (NCATS), 2007)
# This is a selection; strong and weak results do not stand in their true shares. Records with an inconclusive call do not appear. Calls of active or inactive are those of the source. Calls come from the whole dose curve; as a rule, active = well fitted cell-killing curve with a large enough effect; inconclusive = small, poorly fitted or top-dose-only effect; inactive = no such curve, though single readings can be large or run the other way.
# Experiment: qHTS Screen for Compounds that Selectively Target Cancer Cells with p53 Mutations: Cytotoxicity of p53ts Cells at the Permissive Temperature;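 note: 0% = DMSO and -100% = full killing by reference compound; nearly all actives have a fitted effect of over 55% in size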
# Conditions: H1299-p53A138V at 32C, ATP luminescence viability, 24 h; at 46.1 µM (top of the series)
row,SMILES,"activity change, negative = cytotoxicity"
1,CCOP1(=S)c2c(C)nn(CCC#N)c2N=C(c2ccccc2F)N1C (stereo unspecified),inactive: 13.7%
